# AlphaSeq binding of Ab-14 light chain variants to a spike HR2 peptide

Antigen: PDVDLGDISGINAS, a 14-residue peptide of the SARS-CoV-2 spike HR2 region.

The variants keep the heavy chain, the linker and the frameworks of Ab-14 (scFv order VH, a (GGGGS)3 linker, VL).
VH: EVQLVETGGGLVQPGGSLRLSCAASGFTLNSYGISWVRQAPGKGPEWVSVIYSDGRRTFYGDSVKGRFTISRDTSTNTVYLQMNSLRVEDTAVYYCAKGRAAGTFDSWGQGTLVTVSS
VL: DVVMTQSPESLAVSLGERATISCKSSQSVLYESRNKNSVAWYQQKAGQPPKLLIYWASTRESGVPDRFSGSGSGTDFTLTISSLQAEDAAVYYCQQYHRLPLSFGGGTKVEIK

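Phage display of a naive human antibody library on the peptide gave the parent. This is the validation round: designs drawn from the data on random variants, tested in the same kind of assay. Several design methods are mixed in this list. Affinity was read by AlphaSeq, a pooled yeast mating assay with surface-displayed partners. The frequency of each diploid, read from paired DNA barcodes, reflects how well the two displayed proteins bind. Read counts were normalised to the haploid input and turned into Kd by a linear fit to BCL2-family pairs of known affinity, for each replicate. The assay was run in six technical replicates.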

Variants are written as CDR1, CDR2 and CDR3 of the light chain (limits as in the source). Parent: KSSQSVLYESRNKNSVA, WASTRES, QQYHRLPLS. Variants here have more than six changes. Kd is apparent (estimated from mating counts) and averaged on the log scale over replicates with a signal. Smaller is tighter. A pair that was not seen in any replicate is written "no signal"; this usually means weak binding, but a binder can also be missed. Three control strains display no target. For all light chain designs, 4% of the pairings with them gave a signal, with a median of 430 nM and one signal in twenty below 38 nM, so weak values seen in few replicates may be background. The range of this assay differs from that of the first round, and the authors advise against merging the two. In the paper, a design with two or fewer of six values counts as a poor binder.

KLQGSDLYESRVKNSVA | QASVRES | QQYHRLPLS: 1.8 nM (6 of 6 replicates).
HISQMVMYGSCNKQNVA | QVSTREE | QQYHRLPLS: 2.2 nM (6 of 6 replicates).
KSYSSVLKESLNKNPVA | WASTRER | QQYHRLPCS: no signal (0 of 6 replicates).
TISTSMRYQSSLKNAIA | NAQTRES | QQYHRLPLS: 4.2 nM (6 of 6 replicates).
KFAYQADMYGAQCNNVA | HADIREI | QQYFKLPLT: 12 nM (6 of 6 replicates).
FLMQSWDYESRNKNSVA | NASTRMS | QQYHRLPLS: 1.3 nM (6 of 6 replicates).
MVNGIMDHLSKNSNNVA | ETTTRNS | QQYDRLPLS: 1.9 nM (6 of 6 replicates).
HLNLEYMQMMKDHNSIA | DTEHKTQ | QQYFRLPIS: 760 pM (6 of 6 replicates).
KISQLVNFLGKGKNSVA | QMSTRES | QQYDRLPLS: 8.3 nM (6 of 6 replicates).
KLSQITGHMSVSKNNVA | EMVTRVN | QQYDRLPLS: 2.7 nM (6 of 6 replicates).
RVSSHLMAGGIHYNNIA | NTKVLEY | QQYMRLPLG: 470 pM (6 of 6 replicates).
KLSSEYFDSYGERQAVA | ENEATMN | QQYSLLPLS: 240 nM (3 of 6 replicates).
KIYEMTGYQSRNADSIA | DNSTRGR | QQYHRLPLS: 25 nM (6 of 6 replicates).
KIGMTLNQLQEKKNNVA | DLVVREN | QQYHRLPLS: 2.3 nM (6 of 6 replicates).
TLKMDKLPGQVNAYNIA | EAELVEN | QQYFHLPLY: no signal (0 of 6 replicates).
HLGGLMTWEEKARNSVA | QQETRAE | QQYHRLPLS: 850 pM (6 of 6 replicates).
KLEQGFLYENRNKNSVA | SASQRES | QQYHRLPLS: 450 pM (6 of 6 replicates).
KVSILDLGGDRNKNSVA | HASLRES | QQYHRLPLS: 3.2 nM (6 of 6 replicates).
QLDQAYRVGGLWKYSIA | HGSMRVQ | QCYVRLPLS: no signal (0 of 6 replicates).
HIDQQTSYDNGEERAIA | DVTIRDW | QQYARLPLL: 58 nM (6 of 6 replicates).
QLFSRWGQLTEIRQAVA | DATEVAD | QQYMHLPLT: 11 nM (6 of 6 replicates).
KISMLTMYESVAKNNIA | EMTTRPE | QSYHRLPLS: 12 nM (6 of 6 replicates).
KLLQEVTGHSRNRNSVA | HNSTRED | QQYDRLPLA: 120 nM (1 of 6 replicates).
TIANSMLYLSNLKNSIA | QAETRES | QQYHRLPIS: 5.3 nM (6 of 6 replicates).
QMKDSLSQGIYRQDSVA | SDDIRVL | QQYHHLPLS: 22 nM (6 of 6 replicates).
IFSQSVLMGNLTKSSVA | QASTRFS | QQYHRLPLI: 14 nM (6 of 6 replicates).
KLKLSNSVSLRGTRAIA | DGSTRAH | QQYHRLPLT: 1.8 nM (6 of 6 replicates).
MLSTTKDYNYTAGNSVA | EVTEKCN | QQYKRLPLS: 13 nM (6 of 6 replicates).
TLMEVGGYSLNQHNSIA | DLRTREN | QQYHRLPLS: 12 nM (6 of 6 replicates).
MMLSHSLEVQNIQNAVA | EASMVYD | QQYGSLPLS: no signal (0 of 6 replicates).
MIQGSVMSESRLKNSVA | QTTTRES | QQYDRLPLS: 10 nM (6 of 6 replicates).
KLSQVTHSESRNKNSIA | EMVTREM | QQYDRLPLS: 3.8 nM (6 of 6 replicates).
RIGMNFTWPGNARQNVA | EIQKAID | QQYAHLPLS: 36 nM (6 of 6 replicates).
TISQVMNTLTRNGNNVA | DLQNRED | QQYFRLPLS: 1.3 nM (6 of 6 replicates).
KINERLRSGENIQHSIA | NATEIVH | QQYHNLPLG: 38 nM (6 of 6 replicates).
KLSMITGHMSVSKNNVA | EMETREK | QQYDRLPLS: 7.1 nM (6 of 6 replicates).
KLMQEDEYQSRMKNSVA | HASERLS | QQYHRLPLS: 1.3 nM (6 of 6 replicates).
MISQLMNLGQFAINSVA | QAEIRNA | QQYDRLPLI: 42 nM (5 of 6 replicates).
QIDSFYQHGTDAKQAMA | DVSVRDQ | QQYSRLPLS: 520 pM (6 of 6 replicates).
QVSITNMQGHAMEHNVA | EGTYAEE | QQYARLPLQ: 5.2 nM (6 of 6 replicates).
KITALMRFEQKNSNNIA | EVSMRTK | QQYYRLPLS: 2.5 nM (6 of 6 replicates).
KLRHHNLDFYEVENNIA | GESMRAV | QQYYRLPLN: 11 nM (6 of 6 replicates).

The closing 6 entries, repeated:

For KLMQEDEYQSRMKNSVA | HASERLS | QQYHRLPLS, the assay gave 1.3 nM (6 of 6 replicates).
For MISQLMNLGQFAINSVA | QAEIRNA | QQYDRLPLI, the assay gave 42 nM (5 of 6 replicates).
For QIDSFYQHGTDAKQAMA | DVSVRDQ | QQYSRLPLS, the assay gave 520 pM (6 of 6 replicates).
For QVSITNMQGHAMEHNVA | EGTYAEE | QQYARLPLQ, the assay gave 5.2 nM (6 of 6 replicates).
For KITALMRFEQKNSNNIA | EVSMRTK | QQYYRLPLS, the assay gave 2.5 nM (6 of 6 replicates).
For KLRHHNLDFYEVENNIA | GESMRAV | QQYYRLPLN, the assay gave 11 nM (6 of 6 replicates).

Values reported by Li et al. 2023, doi:10.1038/s41467-023-39022-2 (FLAb copy).